The results in this text go back to PubChem BioAssay AID485273 (Sanford-Burnham Center for Chemical Genomics, 2010).

Chains of the proteins cited; added tags and fusions are not shown. Lines headed by an entry give the natural chain unless they say otherwise; changes in a name come on top.
UniProt P61088: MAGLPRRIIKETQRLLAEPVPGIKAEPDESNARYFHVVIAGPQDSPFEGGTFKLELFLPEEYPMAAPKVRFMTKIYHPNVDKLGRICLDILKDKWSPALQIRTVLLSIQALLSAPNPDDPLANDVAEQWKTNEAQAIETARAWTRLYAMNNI

The list shows a part of the results, in another mix than the full data. Active and inactive are the calls of the source. No stated cut-off is given here; in the data, active means inhibition above about 45% (passing the limit was not always enough); inconclusive means no clear call, values can overlap the other calls.

The test concerns the target Ubiquitin-conjugating enzyme E2 N (Homo sapiens) (UniProt P61088). The experiment in a line: blockers of UBC13 ubiquitin chain synthesis – biochemical, TR-FRET, uHTS, primary screen (AID 485273). The following applies: UBC13 polyubiquitin chain formation, at 20 µM, active compounds read high. On the technique in general: TR-FRET usually uses a lanthanide donor and a delayed reading to cut background.
A word on the inhibition: it is the relative decrease from the control value, in per cent. Take `C[C@H]1OP(=O)(Oc2ccccc2)C[C@@H]2O[C@@H]21` (stereo partly drawn): the inhibition was inactive: 6.1%.

Turning to `C[C@@H]1C=CCP(=O)(Oc2ccccc2)O1` (stereo partly drawn), the inhibition was inactive: -6.1%.

Turning to `CC(=O)c1ccc(N2CC2c2ccncc2)cc1` (stereo not drawn), the inhibition is inactive: 1.8%.

As for `CC(C)(C)C(=O)NC(Sc1ccccc1)C(Cl)(Cl)Cl` (stereo not drawn), the inhibition was inactive: 6.1%.

Consider `O=P1(Nc2nc3ccc(Cl)cc3s2)COc2ccccc2O1` (stereo not drawn), for which the inhibition was inactive: -1%.

As to `CCOc1ccc(C2=NCC(CBr)S2)cc1` (stereo not drawn), the inhibition was inactive: 24.7%.

As for `Oc1ccccc1CNc1ccccn1`, the inhibition is inactive: 5.4%.

Regarding `O=C(NC(Sc1ccncn1)C(Cl)(Cl)Cl)c1ccccc1` (stereo not drawn), the inhibition was inactive: 3%.

As to `Cc1c2non([O-])c-2c(C)[n+](=O)[n+]1[O-]`, the inhibition is inactive: 2.2%.

In the case of `Nc1cc(N)c2nonc2c1[N+](=O)[O-]`, the inhibition was inactive: -51.3%.

Regarding `CC(C)CC(=O)NC(Sc1ccc(Cl)cc1)C(Cl)(Cl)Cl` (stereo not drawn), the inhibition was inactive: 4.8%.

With `CN1CCCC(OC(=O)C(c2ccccc2)c2ccccc2)C1` (stereo not drawn), the inhibition was inactive: 6.7%.

`Clc1ccc(Cl)c(NC2=NCC(CBr)S2)c1` (stereo not drawn): the inhibition is inactive: 5.6%.

For `COc1ccccc1OP(=O)(Nc1ccc(C)cn1)Oc1ccccc1OC`, the inhibition was inactive: 2.8%.

As for `Cc1ccc(OP(=O)(Nc2nccs2)Oc2ccc(C)cc2)cc1`, the inhibition was inactive: 2.5%.

As for `CN(C(=O)Cc1ccc(Cl)c(Cl)c1)[C@H]1CCCC[C@H]1N1CCCC1`, the inhibition was inactive: 1.1%.

`Cc1ccc(N/C(=N/P(=O)(N2CCOCC2)N2CCOCC2)N2CCOCC2)cc1`: the inhibition was inactive: 7%.

Take `NC(=O)c1cc([N+](=O)[O-])cc([N+](=O)[O-])c1N`: the inhibition is inactive: -12.9%.

With `CCN(N=Nc1nonc1N)c1nonc1N`, the inhibition was inactive: -3.7%.

In the case of `O=[N+]([O-])c1cc([N+](=O)[O-])c(CCN2CCOCC2)c([N+](=O)[O-])c1`, the inhibition is inactive: -39.7%.

On to `Cc1cc(SC(NC(=O)c2ccc(F)cc2)C(Cl)(Cl)Cl)ncn1` (stereo not drawn), for which the inhibition was inactive: -8.6%.

As to `CCOP(=O)(Nc1ccccc1)OCC`, the inhibition was inactive: -4.5%.

Turning to `CN(C(=O)Cc1ccc(Cl)c(Cl)c1)[C@H]1CCCC[C@@H]1N1CCCC1`, the inhibition is inactive: 10%.

On to `Cc1ccc(NP(=O)(Oc2ccccc2F)Oc2ccccc2F)nc1`, for which the inhibition is inactive: 4.2%.

Take `O=P(Nc1nc2ccc(Cl)cc2s1)(c1ccccc1)c1ccccc1`: the inhibition is inactive: -1.4%.

For `CC(=O)Nc1ccc([As](=O)(O)O)cc1`, the inhibition is inactive: -4.5%.

Consider `O=C(O)c1ccccc1[As](=O)(O)O`, for which the inhibition was inactive: -11.5%.

`O=[N+]([O-])c1cccc(NC2=NCC(CBr)S2)c1` (stereo not drawn): the inhibition is inactive: 4.9%.

As to `O=[N+]([O-])c1ncn(CCn2ncnc2[N+](=O)[O-])n1`, the inhibition was inactive: 3.8%.

As for `CC(C)(C)C(=O)NC(Sc1ccncn1)C(Cl)(Cl)Cl` (stereo not drawn), the inhibition is inactive: -5.8%.

Turning to `O=C(Nc1cc([As](=O)(O)O)ccc1O)c1ccccc1`, the inhibition was inactive: -8.2%.

`CC1CCN(C(=O)Oc2c(Cl)cc(Cl)c3cccnc23)CC1`: the inhibition is inactive: 6.8%.

On to `CC(C)=N/N=C(\N)N[N+](=O)[O-]`, for which the inhibition was inactive: -0.1%.

As to `CN(C)C(=O)OCCc1n(C)cc[n+]1C`, the inhibition was inactive: 5.1%.

With `CCN(/C(=N/P(=O)(N1CCOCC1)N1CCOCC1)N1CCOCC1)c1ccc(OC)cc1`, the inhibition is inactive: -3.1%.

`Nc1ccc([As](=O)(O)c2ccc(N)cc2)cc1`: the inhibition is inactive: -2.3%.

Take `C[N+]1=C2C=CC=CC=C2SC12C([N+](=O)[O-])=CC([N+](=O)[O-])=C[C-]2[N+](=O)[O-]` (stereo not drawn): the inhibition was inactive: -56.7%.

As for `Cc1ccc(NP(=O)(Oc2ccccc2)Oc2ccccc2)nc1`, the inhibition is inactive: 7%.

As to `O=[N+]([O-])c1cc([N+](=O)[O-])c(CCNc2ccccc2)c([N+](=O)[O-])c1`, the inhibition was inactive: -55.6%.

`CCc1nc2c(n1)c1c(non1O)c1c2no[n+]1[O-]`: the inhibition was inactive: -12.3%.

As to `CC(=O)N1C2C3N(C(C)=O)C1C1N(C(C)=O)C(C(N1C(C)=O)N3C(C)=O)N2C(C)=O`, the inhibition was inactive: 7%.

`O=[N+]([O-])c1cccc2n[nH]nc12`: the inhibition was inactive: -10.8%.

Turning to `COc1ccc(C2=NCC(CBr)S2)cc1` (stereo not drawn), the inhibition is inactive: -0.2%.
